Earlier results, collected in US12122816B2, “Long acting peptide tyrosine tyrosine (PYY) analogs and methods of use” (Intarcia Therapeutics, Inc., priority 2020, dated 2024).

Details: in humans; cited from earlier work

CC[C@H](C)[C@H](NC(=O)[C@@H]1CCCN1C(=O)CNC(=O)[C@H](Cc1ccccc1)NC(=O)[C@H](CC(N)=O)NC(=O)[C@H](CC(N)=O)NC(=O)[C@H](CO)NC(=O)[C@H](CO)NC(=O)[C@H](Cc1c[nH]cn1)NC(=O)[C@@H](NC(=O)[C@H](CC(C)C)NC(=O)[C@H](Cc1ccccc1)NC(=O)[C@H](CC(N)=O)NC(=O)[C@H](C)NC(=O)[C@H](CC(C)C)NC(=O)[C@H](CCCNC(=N)N)NC(=O)[C@H](CCC(N)=O)NC(=O)[C@@H](NC(=O)[C@H](C)NC(=O)[C@@H]1CSSC[C@H](NC(=O)[C@@H](N)CCCCN)C(=O)N[C@@H](CC(N)=O)C(=O)N[C@@H]([C@@H](C)O)C(=O)N[C@@H](C)C(=O)N[C@@H]([C@@H](C)O)C(=O)N1)[C@@H](C)O)C(C)C)C(=O)N[C@@H](CC(C)C)C(=O)N1CCC[C@H]1C(=O)N1CCC[C@H]1C(=O)N[C@H](C(=O)N[C@@H](CC(N)=O)C(=O)N[C@H](C(=O)NCC(=O)N[C@@H](CO)C(=O)N[C@@H](CC(N)=O)C(=O)N[C@H](C(=O)N[C@@H](Cc1ccc(O)cc1)C(N)=O)[C@@H](C)O)C(C)C)[C@@H](C)O [pramlintide]
half-life: approximately 48 minutes
